Assays:
PI3Kδ = target: T1, PI3Kδ (Homo sapiens, UniProt O00329); assay: In vitro enzyme assay of PI3Kδ (residual ATP bioluminescence); format: biochemical
T1 construct: Full length p110 subunits of PI3k α, β and δ, N-terminally labeled with polyHis tag; polyHis (N); made in house; host or cells: Sf9 insect cells (baculovirus)
Description: Recombinant Expression of PI3Ks
Full length p110 subunits of PI3k α, β and δ, N-terminally labeled with polyHis tag, were coexpressed with p85 with Baculo virus expression vectors in sf9 insect cells. P110/p85 heterodimers were purified by sequential Ni-NTA, Q-HP, Superdex-100 chromatography. Purified α, β and δ isozymes were stored at −20° C. in 20 mM Tris, pH 8, 0.2M NaCl, 50% glycerol, 5 mM DTT, 2 mM Na cholate. Truncated PI3Kγ, residues 114-1102, N-terminally labeled with polyHis tag, was expressed with Baculo virus in Hi5 insect cells. The γ isozyme was purified by sequential Ni-NTA, Superdex-200, Q-HP chromatography. The γ isozyme was stored frozen at −80° C. in NaH2PO4, pH 8, 0.2M NaCl, 1% ethylene glycol, 2 mM β-mercaptoethanol.
Assays were performed in 25 μL with the above final concentrations of components in white polyproplyene plates (Costar 3355). Phospatidyl inositol phosphoacceptor, PtdIns(4,5)P2 P4508, was from Echelon Biosciences. […] The compound in DMSO (1 μL) was added per test well, and the inhibition relative to reactions containing no compound, with and without enzyme was determined. After assay incubation at room temperature, the reaction was stopped and residual ATP determined by addition of an equal volume of a commercial ATP bioluminescence kit (Perkin Elmer EasyLite) according to the manufacturer's instructions, and detected using a AnalystGT luminometer.

The chains behind the UniProt entries cited, without tags or fusion partners. Where a name states a change or a piece, a line headed by the entry shows the natural chain unless it says otherwise.
UniProt O00329: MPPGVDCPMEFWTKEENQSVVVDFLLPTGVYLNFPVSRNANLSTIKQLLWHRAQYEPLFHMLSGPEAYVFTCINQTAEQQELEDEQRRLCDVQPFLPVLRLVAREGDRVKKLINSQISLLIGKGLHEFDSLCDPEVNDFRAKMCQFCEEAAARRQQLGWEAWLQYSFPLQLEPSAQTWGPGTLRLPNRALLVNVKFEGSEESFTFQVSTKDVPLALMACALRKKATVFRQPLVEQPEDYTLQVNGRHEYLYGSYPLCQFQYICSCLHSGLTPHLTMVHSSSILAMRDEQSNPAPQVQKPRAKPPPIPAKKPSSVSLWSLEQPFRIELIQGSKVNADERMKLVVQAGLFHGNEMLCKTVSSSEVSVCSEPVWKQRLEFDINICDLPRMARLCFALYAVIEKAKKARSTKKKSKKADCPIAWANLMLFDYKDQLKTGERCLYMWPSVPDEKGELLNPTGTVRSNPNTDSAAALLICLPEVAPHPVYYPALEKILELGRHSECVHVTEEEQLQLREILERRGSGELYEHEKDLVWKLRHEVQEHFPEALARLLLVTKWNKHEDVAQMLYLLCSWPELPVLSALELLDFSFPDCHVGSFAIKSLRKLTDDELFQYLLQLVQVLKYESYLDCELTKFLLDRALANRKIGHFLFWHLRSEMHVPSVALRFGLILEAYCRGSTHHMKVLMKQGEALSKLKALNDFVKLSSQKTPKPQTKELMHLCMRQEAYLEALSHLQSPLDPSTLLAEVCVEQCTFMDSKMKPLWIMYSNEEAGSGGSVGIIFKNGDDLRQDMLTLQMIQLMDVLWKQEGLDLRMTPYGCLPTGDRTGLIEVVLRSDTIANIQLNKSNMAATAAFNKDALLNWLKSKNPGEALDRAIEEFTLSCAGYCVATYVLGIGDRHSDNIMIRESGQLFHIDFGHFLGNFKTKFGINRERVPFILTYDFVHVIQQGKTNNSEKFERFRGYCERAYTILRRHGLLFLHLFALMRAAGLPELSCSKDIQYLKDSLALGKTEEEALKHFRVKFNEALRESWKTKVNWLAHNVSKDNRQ
UniProt P42338, whole entry, species assumed: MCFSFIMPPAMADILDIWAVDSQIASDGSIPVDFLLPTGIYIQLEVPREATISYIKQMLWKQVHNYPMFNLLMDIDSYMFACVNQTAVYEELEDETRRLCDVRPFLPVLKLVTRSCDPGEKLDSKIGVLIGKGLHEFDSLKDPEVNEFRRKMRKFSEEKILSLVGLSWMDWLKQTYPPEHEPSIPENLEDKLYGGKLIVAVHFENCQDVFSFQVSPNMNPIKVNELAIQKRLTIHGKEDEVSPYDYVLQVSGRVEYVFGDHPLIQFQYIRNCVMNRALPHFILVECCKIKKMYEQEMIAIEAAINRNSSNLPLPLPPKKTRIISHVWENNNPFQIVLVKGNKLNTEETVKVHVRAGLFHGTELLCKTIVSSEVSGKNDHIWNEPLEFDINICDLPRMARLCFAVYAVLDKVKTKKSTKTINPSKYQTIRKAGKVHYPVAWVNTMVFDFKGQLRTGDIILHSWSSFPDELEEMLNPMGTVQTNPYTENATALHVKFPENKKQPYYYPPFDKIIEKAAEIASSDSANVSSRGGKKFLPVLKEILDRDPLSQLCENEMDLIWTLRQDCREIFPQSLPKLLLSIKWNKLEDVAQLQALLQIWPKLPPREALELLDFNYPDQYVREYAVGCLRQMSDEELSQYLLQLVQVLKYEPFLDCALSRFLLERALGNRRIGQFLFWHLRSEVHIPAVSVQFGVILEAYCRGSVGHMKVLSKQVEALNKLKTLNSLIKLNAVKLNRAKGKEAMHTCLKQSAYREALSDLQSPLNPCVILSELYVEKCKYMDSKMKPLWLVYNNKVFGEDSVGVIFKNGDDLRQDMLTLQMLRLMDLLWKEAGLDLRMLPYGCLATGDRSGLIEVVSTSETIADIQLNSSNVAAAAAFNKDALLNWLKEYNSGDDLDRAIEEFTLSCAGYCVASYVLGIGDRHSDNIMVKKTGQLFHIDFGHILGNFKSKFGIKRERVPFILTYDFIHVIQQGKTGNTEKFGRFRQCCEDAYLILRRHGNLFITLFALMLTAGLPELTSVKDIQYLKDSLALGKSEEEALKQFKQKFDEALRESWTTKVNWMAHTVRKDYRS

p110β = p110β (Homo sapiens, UniProt P42338); settings: read-out: potency on beta; cited from earlier work

| Compound | IC50 (PI3Kδ) [nM] | IC50 (p110β) [nM] |
| --- | --- | --- |
| Cc1ccccc1-c1nc2c(C)cccc2cc1Cn1nc(-c2cccc(O)c2)c2c(N)ncnc21 [Example 9, 3-(4-Amino-1-((8-methyl-2-o-tolylquinolin-3-yl)methyl)-1H-pyrazolo[3,4-d]pyrimidin-3-yl)phenol] | 7 | – |
| Cc1cc(C(C)Nc2ccccc2)c2nc(N3CCOCC3)cc(=O)n2c1 (centres unmarked) [TGX-221] | – | 7 |
